One experiment concerns the target cyclooxygenase-2 (Homo sapiens, UniProt P35354). The experiment is described as follows: Inhibition of cyclooxygenase-2 activity (PGE2 synthesis in response to arachidonic acid, radioimmunoassay; whole cell and microsomal assays). It is filed as cell-based. As to conditions: read-out: COX-2 IC50.
The test system of the next experiment is paw edema. Put plainly: Rat paw edema assay (carrageenan). It is filed as in vivo. As to conditions: po.
For another experiment, the target named is cyclooxygenase-1 (Homo sapiens, UniProt P23219). Put plainly: Inhibition of cyclooxygenase-1 activity (PGE2 synthesis in response to arachidonic acid, radioimmunoassay; whole cell and microsomal assays). As to conditions: read-out: COX-1 IC50; table of prepared examples. The experiment is classed as cell-based.

Sequences of proteins named here, by UniProt entry; tags and fusion partners are left off. Residues count along the entry.
UniProt P35354, 18-604 limits assumed: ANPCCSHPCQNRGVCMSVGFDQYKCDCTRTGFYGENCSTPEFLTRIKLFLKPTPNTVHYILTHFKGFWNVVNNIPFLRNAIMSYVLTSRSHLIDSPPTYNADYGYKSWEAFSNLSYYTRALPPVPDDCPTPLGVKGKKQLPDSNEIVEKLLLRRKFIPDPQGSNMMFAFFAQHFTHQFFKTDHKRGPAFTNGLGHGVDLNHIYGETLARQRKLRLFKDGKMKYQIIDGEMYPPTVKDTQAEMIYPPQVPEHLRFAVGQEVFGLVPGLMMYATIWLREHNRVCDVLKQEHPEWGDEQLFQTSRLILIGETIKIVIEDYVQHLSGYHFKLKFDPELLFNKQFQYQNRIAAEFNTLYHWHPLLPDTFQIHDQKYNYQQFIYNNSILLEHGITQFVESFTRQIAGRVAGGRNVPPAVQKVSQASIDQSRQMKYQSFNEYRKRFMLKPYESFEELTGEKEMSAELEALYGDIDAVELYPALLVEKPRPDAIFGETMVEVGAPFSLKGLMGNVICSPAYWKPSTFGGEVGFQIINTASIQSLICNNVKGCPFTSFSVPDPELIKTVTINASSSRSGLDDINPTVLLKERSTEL
UniProt P23219, 24-599 limits assumed: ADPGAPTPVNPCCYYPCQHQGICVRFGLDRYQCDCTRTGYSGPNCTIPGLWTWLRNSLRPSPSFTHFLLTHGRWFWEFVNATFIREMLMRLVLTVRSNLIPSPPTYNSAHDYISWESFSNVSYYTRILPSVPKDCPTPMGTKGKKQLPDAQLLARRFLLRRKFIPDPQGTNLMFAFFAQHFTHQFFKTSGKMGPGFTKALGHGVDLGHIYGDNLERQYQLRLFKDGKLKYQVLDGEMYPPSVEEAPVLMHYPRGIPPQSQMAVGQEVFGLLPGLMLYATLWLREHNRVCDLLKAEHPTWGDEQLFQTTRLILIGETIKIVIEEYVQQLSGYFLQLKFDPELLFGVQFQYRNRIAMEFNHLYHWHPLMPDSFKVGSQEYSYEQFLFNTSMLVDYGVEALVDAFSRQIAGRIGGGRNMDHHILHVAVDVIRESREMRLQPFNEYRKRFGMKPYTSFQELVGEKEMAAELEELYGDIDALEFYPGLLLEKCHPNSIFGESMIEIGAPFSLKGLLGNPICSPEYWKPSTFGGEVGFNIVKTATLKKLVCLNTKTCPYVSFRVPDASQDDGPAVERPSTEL

Where two headings read alike, the source gives them in different places. Where only a bound is given, the exact number is not on record here.

Take `CS(=O)(=O)Nc1cc2c(cc1Sc1ccc(Cl)cc1Cl)C(=O)CC2`: the IC50 at cyclooxygenase-2 (human osteosarcoma 143 cells, PGE2 synthesis) came out at 7 nM; at cyclooxygenase-2 (table of prepared examples), 7 nM. Further, the “Rat Paw EDEMA ED30” value in the experiment with paw edema (1 hr before carrageenan, paw volume 3 hr later) is 0.1 mpk.
Turning to `COc1ccc(Sc2cc3c(cc2NS(C)(=O)=O)CCC3=O)cc1`, the IC50 on cyclooxygenase-2 (table of prepared examples) is 300 nM.
On the same count and under the same terms, the figure for `CS(=O)(=O)Nc1cc2c(cc1Sc1ccccc1C(F)(F)F)C(=O)CC2` is 100 nM; for `CSc1ccc(Oc2cc3c(cc2NS(C)(=O)=O)CCC3=O)cc1` it is 100 nM; for `CS(=O)(=O)Nc1cc2c(cc1Sc1ccccc1F)C(=O)CC2` it is 100 nM.
`CS(=O)(=O)Nc1cc2c(cc1Sc1ccc(Br)cc1F)C(=O)CC2`: the 50% inhibitory concentration (IC50) at cyclooxygenase-2 (table of prepared examples) was found to be 10 nM.
Take `CS(=O)(=O)Nc1cc2c(cc1Sc1c(F)cc(Br)cc1F)C(=O)CC2`: the half-maximal inhibitory concentration (IC50) at cyclooxygenase-2 (table of prepared examples) was 60 nM; at cyclooxygenase-1, over 100000 nM.
On to `CS(=O)(=O)Nc1cc2c(cc1Sc1c(F)cccc1F)C(=O)CC2`, for which the 50% inhibitory concentration (IC50) on cyclooxygenase-2 (table of prepared examples) stood at 100 nM.
For `CCc1ccc(Sc2cc3c(cc2NS(C)(=O)=O)CCC3=O)cc1`, at cyclooxygenase-2 (table of prepared examples), the IC50 was determined as 1000 nM.
Turning to `CS(=O)(=O)Nc1cc2c(cc1Sc1ccc(Br)cc1)C(=O)CC2`, the IC50 at cyclooxygenase-2 (table of prepared examples) is 8 nM; at cyclooxygenase-1 it was over 10000 nM. Besides, in the experiment with paw edema (table of prepared examples), the “Rat Paw Edema ED50” value is on record as 3.0 mpk.

By IC50 is commonly meant the concentration at which inhibition is half-maximal.

The values above are taken from patent publication USRE38103E1, “5-methanesulfonamido-1-indanones as an inhibitor of cyclooxygenase-2” (Merck Frosst Canada & Co., priority 1992, dated 2003).
